Experimental data taken from PubChem BioAssay AID624171 (National Center for Advancing Translational Sciences (NCATS), 2012).
Several values for one entry are separate records, joined by “and”; a condition that tells them apart may be missing. Equal values may be shown once. Only a part is listed here, and it is no random draw. Some results for these compounds are left out of this collection, so the calls shown say nothing about other tests. Activity calls are given as the source filed them. The call rests on the fitted dose curve; in most records, active means well fitted activation curve with a large enough effect; inconclusive means small, poorly fitted or top-dose-only effect; inactive means flat fitted curve, though single readings scatter.

Test: qHTS of Nrf2 Activators; further: % of control where 0% means no effect; nearly all actives have a fitted effect of over 65% in size
Conditions: AREc32 ARE-luciferase reporter (MCF7-derived line), luminescence, 24 h; at 46.1 µM (top of the series)
Description: Many diseases have some form of oxidative stress injury and ties to inflammation, causing a host of problems for the patient. The antioxidant response element (ARE) plays an important role in alleviating the harmful effects of oxidative stress. The antioxidant response element (ARE) is a transcriptional regulatory element involved in the activation of genes coding for a number of antioxidant proteins and detoxifying enzymes. These enzymes work in concert to protect tissues from oxidative insults and chemical toxicities in human hepatocytes and immune cells. The protective effects of ARE activation are primarily triggered through Nrf2 (NF-E2-related factor) binding to and activating AREs. It is known that Nrf2 controls the production of over 250 antioxidant and detoxification proteins (Hu et al., 2006), thereby protecting tissues by increasing cellular antioxidant content and suppressing inflammatory signaling pathways. The transcription factor Nrf2 is a central link between oxidative chemicals, such as phenolic antioxidants and electrophilic compounds, and the activation of ARE. Nrf2 levels are constitutively low as a consequence of its interaction with Keap1, which targets its degradation (Zipper and Mulcahy, 2002). Electrophiles react with key cysteine residues in Keap1, releasing Nrf2 and allowing its translocation to the nucleus. Once within the nucleus, Nrf2 complexes with coactivators such as p300, and binds to the AREs to induce gene transcription of cytoprotective enzymes, resulting in the prevention of toxicity. Activation of Nrf2 protects tissues by increasing cellular antioxidant content and suppressing inflammatory signaling pathways. Identifying novel and potent Nrf2 activators by using the AREc32 cell line to detect ARE activation by small molecules will lead to the identification and development of probes to study protective pathways in multiple tissues. These specific probes are essential to study the ARE pathway, and eventually to determine whether this pathway does activate genes that could protect against a host of diseases, including cardiovascular diseases, obesity, diabetes, Alzheimer's, and Parkinson's disease.
This project's aim is to identify novel and potent Nrf2 activators by using the AREc32 cell line to detect ARE activation by small molecules, which will lead to the identification and development of probes to study the ARE pathway.
NIH Chemical Genomics Center [NCGC]
NIH Molecular Libraries Probe Centers Network [MLPCN]
Assay Submitter (PI): Curtis Klaassen, University of Kansas Medical Center
5 uL of 1000 cells/well of AREc32_Fluc cells are seeded into 1536-well plate in OPTI-MEM medium with 5% FBS. The plates are incubated overnight at 37 deg C with 5% CO2. Then through pin tool transfer, 23 nL of compounds are added to each well before a 24 hr incubation at 37 deg C with 5% CO2. After the addition of 2.5 uL of Steady-Glo. the plates are kept at RT for 30 min, before they are read on the ViewLux.
In the case of `Cc1ccc(C(=O)NCC2(N3CCCCC3)CCCCC2)cc1`, the activation is reported as inactive: 0.0048%.
In the case of `CN(C)C1(CNC(=O)c2ccccc2F)CCCCC1`, the activation is reported as inactive: -1.16%.
With `COc1cc(SC)ccc1C(=O)NCC1(N(C)C)CCCCC1` the activation was inactive: -0.664%.
With `CN(C)C1(CNC(=O)c2cccc(Cl)c2)CCCCC1` the activation was inactive: -0.22%.
In the case of `CCN(CC)CC(C)C(C)OC(=O)C(O)(c1ccccc1)c1ccccc1` (stereo unspecified), the activation is reported as inactive: -0.522%.
In the case of `CC(C)N1C(=O)CC2(CCN(CCOC(=O)C(O)(c3ccccc3)c3ccccc3)CC2)C1=O`, the activation is reported as inactive: -0.956%.
In the case of `CN1[C@@H]2CC[C@H]1CC(OC(=O)C(O)(c1ccccc1)c1ccccc1)C2` (stereo partly specified), the activation is reported as inactive: -0.759%.
With `O=C(NCC1(N2CCCCC2)CCCCC1)c1cc([N+](=O)[O-])ccc1Cl` the activation was inactive: -0.468%.
For `CCOc1cccc(C(=O)NCC2(N(C)C)CCCCC2)c1`, the activation was inactive: -1.05%.
In the case of `COc1ccc(C(=O)NCC2(N(C)C)CCCCC2)cc1`, the activation is reported as inactive: -0.393%.
In the case of `O=C(NCC1(N2CCCCC2)CCCCC1)c1cccc(Br)c1`, the activation is reported as inactive: 2.51%.
In the case of `Cc1cc(C(=O)NCC2(N3CCCCC3)CCCCC2)ccc1[N+](=O)[O-]`, the activation is reported as inactive: -0.0115%.
For `CCN1CCCC(OC(=O)C2(O)c3ccccc3C=Cc3ccccc32)C1` (stereo unspecified), the activation was inactive: 0.917%.
In the case of `O=C(NCC1(N2CCCCC2)CCCCC1)c1cc(F)c(F)cc1Cl`, the activation is reported as inactive: 0.245%.
With `C=CCN1CCN(CCOC(=O)C(O)(c2ccccc2)c2ccccc2)CC1` the activation was inactive: -0.491%.
For `CCCCOc1ccccc1C(=O)NCC1(N(C)C)CCCCC1`, the activation was inactive: 0.828%.
In the case of `CN(C)C1CCCC1OC(=O)C(O)(c1ccccc1)c1ccccc1` (stereo unspecified), the activation is reported as inactive: -0.975%.
With `CN(C)c1ccc(C(=O)NCC2(N(C)C)CCCCC2)cc1` the activation was inactive: 0.176%.
In the case of `CN(C)C1(CNC(=O)c2ccccc2[N+](=O)[O-])CCCCC1`, the activation is reported as inactive: -1.75%.
For `Cc1ccccc1C(=O)NCC1(N2CCCCC2)CCCCC1`, the activation was inactive: 0.761%.
For `O=C(NCC1(N2CCCCC2)CCCCC1)c1cccc(Cl)c1`, the activation was inactive: 0.331%.
With `COc1ccc(Cl)cc1C(=O)NCC1(N(C)C)CCCCC1` the activation was inactive: 5.33%.
In the case of `COc1cccc(C(=O)NCC2(N3CCCCC3)CCCCC2)c1`, the activation is reported as inactive: -0.0447%.
In the case of `COc1ccc(C(=O)NCC2(N(C)C)CCCCC2)cc1Cl`, the activation is reported as inactive: 0.38%.
For `COc1cc(C(=O)NCC2(N(C)C)CCCCC2)c([N+](=O)[O-])cc1OC`, the activation was inactive: -1.32%.
For `CN(C)C1(CNC(=O)c2ccc(Br)cc2)CCCCC1`, the activation was inactive: -0.14%.
In the case of `O=C(OCCN1CCCC1)C(O)(c1ccccc1)c1ccccc1`, the activation is reported as inactive: -0.554%.
In the case of `CC(C)Oc1ccc(C(=O)NCC2(N(C)C)CCCCC2)cc1`, the activation is reported as inactive: 0.892% and inactive: -0.627%.
In the case of `CN(C)c1cccc(C(=O)NCC2(N(C)C)CCCCC2)c1`, the activation is reported as inactive: -0.648%.
For `C=C(C)C#CC(O)(C(=O)OC1CCN(C)CC1)c1ccccc1` (stereo unspecified), the activation was inactive: 4.99%.
With `COc1ccc(Br)c(C(=O)NCC2(N3CCCCC3)CCCCC2)c1` the activation was inactive: 0.126%.
With `Cc1cccc(C(=O)NCC2(N(C)C)CCCCC2)c1` the activation was inactive: -0.544%.
In the case of `COc1cc(C(=O)NCC2(N(C)C)CCCCC2)cc(OC)c1OC`, the activation is reported as inactive: -0.533%.
For `CC(C)COc1ccc(C(=O)NCC2(N(C)C)CCCCC2)cc1`, the activation was inactive: 3.76%.
With `COc1cccc(C(=O)NCC2(N3CCOCC3)CCCCC2)c1` the activation was inactive: -0.635%.
In the case of `O=C(OC1CN2CCC1CC2)C(CO)(c1ccccc1)c1ccccc1` (stereo unspecified), the activation is reported as inactive: -0.0622%.
